From patent US8372973B2, “Prokineticin 1 receptor antagonists” (Janssen Pharmaceutica N.V., priority 2005, dated 2013)

Chains of the proteins cited; added tags and fusions are not shown.
UniProt Q8TCW9, whole entry: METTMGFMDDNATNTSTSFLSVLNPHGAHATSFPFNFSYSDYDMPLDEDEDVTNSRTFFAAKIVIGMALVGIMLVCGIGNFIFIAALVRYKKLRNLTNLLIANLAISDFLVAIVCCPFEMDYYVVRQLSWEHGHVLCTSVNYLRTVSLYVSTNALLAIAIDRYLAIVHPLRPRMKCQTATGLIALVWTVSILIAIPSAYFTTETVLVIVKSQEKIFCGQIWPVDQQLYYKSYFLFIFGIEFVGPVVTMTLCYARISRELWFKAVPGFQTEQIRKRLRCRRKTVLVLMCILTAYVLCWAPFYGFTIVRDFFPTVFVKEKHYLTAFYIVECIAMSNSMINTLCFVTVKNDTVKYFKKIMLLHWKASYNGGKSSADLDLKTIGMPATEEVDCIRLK

Target: GPR73 (prokineticin 1 receptor) (Homo sapiens, UniProt Q8TCW9)
Assay: PK1 functional assay: Ca2+ mobilization on the FLIPR
Method: At a time of 24 h prior to running the assay, in cell culture media (DMEM containing high Glucose and L-glutamine, 10% FBS, 1% Pen/Streptomycin, 1% Sodium Pyruvate, 20 mM HEPES, Zeocin 200 mg/L), […] of 1.3*10^6/ml HEK 293 GPR73 (prokineticin 1 receptor) expressing cells were plated in a 96 well poly-d-lysine coated plate (Costar), and incubated at 37° C. and 5% CO2. On the day in which the assay was run, the media was removed and […] of 5× Calcium Plus Dye (Molecular Devices) which was previously resuspended with 200 mL of assay buffer [HBSS w/Ca^2+ and Mg^2+ w/o phenol red, 20 mM HEPES, 0.1% BSA, 10 mL probenecid (710 mg probenecid in 5 mL of 1N NaOH, to which was then added 5 mL HBSS containing 20 mM HEPES)] was added to each well of the 96-well plate. The plate was incubated at 37° C. and 5% CO2 for 30 min in dark. The plate was removed and allowed to reach RT for 15 min in the dark. The assay was then run on the FLIPR. In Brief: base line read for 1 min, compound added (25 μL) and incubated for 4 min, 15 seconds, PK1 ligand preparation added (25 μL) for a final concentration of a previously determined EC50 and fluorescence was counted for 1 min, 45 seconds. Baseline is described as the amount of relative fluorescence read when buffer alone is added to cells. Baseline was subtracted from all wells. Percent of control was calculated as follows: […]

Ca^2+ Mobilization % Inh @10 μM (@10 μM compound): 42% | IC50 (read-out: Ca^2+ Mobilization IC50, HEK 293 GPR73 expressing cells, PK1 ligand preparation at its EC50): > 10 µM
Compound: COc1ccc(Cn2c(NCc3cnc(C)cc3C)nc(=O)n(Cc3ccncc3)c2=O)cc1
